The record followed here is US10876003B2, “Class of stable heptamethine cyanine fluorophores and biomedical applications thereof” (priority 2014, dated 2020).

This data set is described as follows: Maximum absorbance wavelength in pH 7.4 phosphate-buffered saline. It is filed as physicochemical. The conditions noted are these: 2 μM in 0.1 M PBS, pH 7.4, with 0.1% DMSO (v/v). The procedure:
Table 1 includes exemplary compounds according to formula II, in which n is 2, R^1 is —CH2—, m is 2, R^2 is methyl, R^14 to R^17 are methyl, and R^5, R^6, R^8, R^10, R^11 and R^13 are hydrogen. Other substituents are as indicated. The maximum absorbance wavelength (λmax) was measured in pH 7.4 phosphate-buffered saline.
Unless stated otherwise, reactions were conducted in oven-dried glassware under an atmosphere of nitrogen or argon using anhydrous solvents (passed through activated alumina columns) All other commercially obtained reagents were used as received. […] Flash column chromatography was performed using normal phase or reverse phase on a CombiFlash® Rf 200i (Teledyne Isco Inc.). […] Data for ^1H NMR spectra are reported as follows: chemical shift (6 ppm), multiplicity, coupling constant (Hz), and integration. ^13C NMR spectra were recorded on Varian spectrometers (at 100 or 125 MHz). Data for ^13C NMR spectra are reported in terms of chemical shift. IR spectra were recorded on a JASCO FT/IR 4100 spectrometer and are reported in terms of frequency of absorption (cm^−1). High-resolution LC/MS analyses were conducted on a Thermo-Fisher LTQ-Orbitrap-XL hybrid mass spectrometer system with an Ion MAX API electrospray ion source in positive ion mode. Separations were carried out on a narrow-bore (50×2.1 mm), Zorbax Rapid-Resolution, reversed-phase C18 (3.5 μm) column with a flow rate of 250 μL/min with a 10 min, 2-90% gradient of MeCN/H2O containing 0.1% HCOOH. […] Fluorescence traces and quantum yield measurements were recorded on a PTI QuantaMaster steady-state spectrofluorimeter operated by FelixGX 4.0.3 software, with 10 nm excitation and emission slit widths, 0.1 s integration rate, and enabled emission correction.

In the case of `CCCN1/C(=C/C=C2\CCCC(/C=C/C3=[N+](CCC)c4ccccc4C3(C)C)=C2OCCN(C)C(C)=O)C(C)(C)c2ccccc21` [Compound 11], the λmax stood at 760 nm.

For `CCCN1/C(=C/C=C2\CCCC(/C=C/C3=[N+](CCC)c4ccccc4C3(C)C)=C2OCC[N+](C)(C)C)C(C)(C)c2ccccc21` [Compound 12], the λmax was 768 nm.

As for `CCCN1/C(=C/C=C2\CCCC(/C=C/C3=[N+](CCC)c4ccccc4C3(C)C)=C2N(C)CCOC)C(C)(C)c2ccccc21` [Compound 16], the λmax stood at 668 nm.

Take `CCCN1/C(=C/C=C2\CCCC(/C=C/C3=[N+](CCC)c4ccccc4C3(C)C)=C2N(C)CCOC(C)=O)C(C)(C)c2ccccc21` [Compound 17]: the λmax stood at 689 nm.
